Assay results from US10968214B2, “KRas G12C inhibitors” (Eli Lilly and Company, priority 2018, dated 2021).

Experiments:
Format in all cases: in vivo
Conditions in all cases: Cetuximab 20 mg/kg BIWx4
SW837 xenograft = experiment: Anti-tumor growth activity, SW837 colorectal xenograft
SW1463 xenograft = experiment: Anti-tumor growth activity, SW1463 colorectal xenograft
MiaPaca-2 xenograft = experiment: Anti-tumor growth activity, MiaPaca-2 pancreatic xenograft

cetuximab [reference compound]
In Vivo Anti-Tumor Activities (SW837 xenograft): 58.49 | In Vivo Anti-Tumor Activities (SW1463 xenograft): 81.1 | In Vivo Anti-Tumor Activities (MiaPaca-2 xenograft): −20.8
